Laboratory results taken from ChEMBL document CHEMBL4622954, “Structural manipulation of aporphines via C10 nitrogenation leads to the identification of new 5-HT7AR ligands” (Bioorg Med Chem, 2020).

Protein sequences, listed by entry. Tags and fused reporters are not part of them.
UniProt P21918, whole entry: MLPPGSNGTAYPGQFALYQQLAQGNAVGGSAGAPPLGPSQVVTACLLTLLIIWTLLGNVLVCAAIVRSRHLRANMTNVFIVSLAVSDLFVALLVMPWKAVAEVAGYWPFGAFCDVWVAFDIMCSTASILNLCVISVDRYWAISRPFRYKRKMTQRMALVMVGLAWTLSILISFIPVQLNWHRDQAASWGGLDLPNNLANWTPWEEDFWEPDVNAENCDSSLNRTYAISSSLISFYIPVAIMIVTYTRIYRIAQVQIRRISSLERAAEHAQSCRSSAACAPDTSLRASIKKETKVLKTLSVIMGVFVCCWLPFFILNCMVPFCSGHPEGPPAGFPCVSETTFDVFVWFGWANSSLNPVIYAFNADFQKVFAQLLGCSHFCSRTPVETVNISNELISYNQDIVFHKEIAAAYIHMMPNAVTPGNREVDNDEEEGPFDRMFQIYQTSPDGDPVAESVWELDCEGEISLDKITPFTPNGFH
UniProt P21728, whole entry: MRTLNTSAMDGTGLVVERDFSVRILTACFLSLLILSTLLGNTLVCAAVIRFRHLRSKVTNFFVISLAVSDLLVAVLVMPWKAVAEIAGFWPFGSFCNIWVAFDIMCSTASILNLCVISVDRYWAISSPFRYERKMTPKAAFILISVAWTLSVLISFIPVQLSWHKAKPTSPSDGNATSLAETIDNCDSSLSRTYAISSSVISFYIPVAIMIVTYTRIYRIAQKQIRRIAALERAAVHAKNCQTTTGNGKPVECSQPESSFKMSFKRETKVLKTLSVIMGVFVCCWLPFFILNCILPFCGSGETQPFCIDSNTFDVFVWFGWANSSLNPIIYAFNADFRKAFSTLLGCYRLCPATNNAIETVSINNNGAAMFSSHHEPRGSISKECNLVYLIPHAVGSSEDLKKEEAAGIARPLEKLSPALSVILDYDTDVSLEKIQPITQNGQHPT
UniProt P50406, whole entry: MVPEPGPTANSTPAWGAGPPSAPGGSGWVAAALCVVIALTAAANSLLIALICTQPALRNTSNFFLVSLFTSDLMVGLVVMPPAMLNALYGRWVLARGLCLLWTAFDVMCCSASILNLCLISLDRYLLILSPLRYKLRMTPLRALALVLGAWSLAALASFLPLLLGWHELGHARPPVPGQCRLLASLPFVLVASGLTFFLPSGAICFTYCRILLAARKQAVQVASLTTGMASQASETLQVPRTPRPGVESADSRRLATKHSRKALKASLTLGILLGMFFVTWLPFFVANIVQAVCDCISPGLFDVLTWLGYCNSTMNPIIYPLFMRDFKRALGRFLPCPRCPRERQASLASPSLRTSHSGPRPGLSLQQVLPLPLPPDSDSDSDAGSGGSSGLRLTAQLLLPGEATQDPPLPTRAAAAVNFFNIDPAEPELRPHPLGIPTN
UniProt P14416, whole entry: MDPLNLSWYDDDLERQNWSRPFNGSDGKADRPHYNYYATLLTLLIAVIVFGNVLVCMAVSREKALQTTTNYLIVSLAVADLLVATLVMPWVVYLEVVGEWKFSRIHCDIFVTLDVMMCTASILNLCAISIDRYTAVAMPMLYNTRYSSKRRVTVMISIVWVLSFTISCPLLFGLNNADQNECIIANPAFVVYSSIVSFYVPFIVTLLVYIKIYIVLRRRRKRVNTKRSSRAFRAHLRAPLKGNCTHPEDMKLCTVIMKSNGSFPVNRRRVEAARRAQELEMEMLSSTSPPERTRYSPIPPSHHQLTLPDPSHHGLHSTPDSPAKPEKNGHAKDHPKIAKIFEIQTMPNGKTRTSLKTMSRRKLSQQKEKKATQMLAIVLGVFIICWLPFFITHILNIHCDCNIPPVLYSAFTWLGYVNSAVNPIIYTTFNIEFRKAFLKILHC
UniProt P21917, whole entry: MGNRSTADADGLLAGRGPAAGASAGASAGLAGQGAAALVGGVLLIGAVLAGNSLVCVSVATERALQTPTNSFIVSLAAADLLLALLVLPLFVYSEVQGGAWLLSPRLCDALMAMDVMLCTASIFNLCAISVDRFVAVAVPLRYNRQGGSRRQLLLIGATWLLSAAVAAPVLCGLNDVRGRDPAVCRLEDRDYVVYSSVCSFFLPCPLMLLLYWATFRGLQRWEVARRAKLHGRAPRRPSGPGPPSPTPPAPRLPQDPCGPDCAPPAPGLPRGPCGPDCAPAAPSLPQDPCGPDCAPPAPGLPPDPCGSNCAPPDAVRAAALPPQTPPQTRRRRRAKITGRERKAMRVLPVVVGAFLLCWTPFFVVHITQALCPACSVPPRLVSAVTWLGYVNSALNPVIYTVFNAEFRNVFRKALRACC

Legend:
D(1B) dopamine receptor = D(1B) dopamine receptor (Homo sapiens, UniProt P21918); assay: Binding affinity to human dopamine D5 receptor expressed in HEKT cells incubated for 90 mins by microbeta counting method; assay type: cell-based
D(1A) dopamine receptor = D(1A) dopamine receptor (Homo sapiens, UniProt P21728); assay: Displacement of [3H]-SCH23390 from human dopamine D1 receptor expressed in HEKT cells incubated for 90 mins by microbeta counting method
[1] = target: 5-hydroxytryptamine receptor 6 (Homo sapiens, UniProt P50406); assay: Displacement of [3H]-LSD from human 5-HT6 receptor expresssed in stable HEK cell membrane incubated for 90 mins by microbeta counting method
D(2) dopamine receptor = D(2) dopamine receptor (Homo sapiens, UniProt P14416); assay: Displacement of [3H]-N-Methylspiperone from human dopamine D2 receptor expressed in stable fibroblast cells incubated for 90 mins by microbeta counting method
D(4) dopamine receptor = D(4) dopamine receptor (Homo sapiens, UniProt P21917); assay: Displacement of [3H]-N-Methylspiperone from human dopamine D4 receptor expressed in stable HEK cells incubated for 90 mins by microbeta counting method; assay type: cell-based

inhibition (D(1B) dopamine receptor) [%]	inhibition (D(1A) dopamine receptor) [%]	inhibition [1] [%]	inhibition (D(2) dopamine receptor) [%]	inhibition (D(4) dopamine receptor) [%]	Compound
< 50	< 50	< 50	< 50	< 50	CN1CCc2cccc3c2C1Cc1cc2sc(N)nc2cc1-3 (racemic)
< 50	< 50	< 50	< 50	< 50	CN1CCc2cccc3c2C1Cc1ccc(NC(N)=O)cc1-3 (racemic)
